The list is not random: actives were taken first. Their share in the collection is about 16%.
uPA generation = blocks generation of uPA at the cell surface. cell surface uPA generation assay, qHTS. Potency, µM (titrated, usually from 38.3 µM), usual class: inhibitors. 330,000 compounds, 0.31% hits; active = well fitted inhibition curve with a large enough effect; inconclusive = small, poorly fitted or top-dose-only effect; inactive = no such curve, though single readings can be large or run the other way; tested in mouse RAW 264.7 cells; note: nearly all actives have a fitted effect of over 55% in size
miR-21 reporter = miR-21 reporter, rising signal | HeLa miR-21 FLuc reporter, luciferase, 48 h | Potency, µM (highest dose often 38.3 µM) | 340,000 tested, under 10 active | AID 2288; active = well fitted rising curve with a large enough effect; inconclusive = small, poorly fitted or top-dose-only effect; inactive = no such curve, though single readings can be large or run the other way;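 further: miR-21 action dims this reporter so a rising signal means less miR-21 action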
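Luminescence from a firefly luciferase reporter carrying a miR-21 binding site downstream, stably expressed under a CMV promoter in HeLa cells that make miR-21 endogenously, reports miRNA modulation after 48 h compound exposure up to approximately 40uM final.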
TDP1 cell noCPT = qHTS for Inhibitors of human tyrosyl-DNA phosphodiesterase 1 (TDP1): qHTS in cells in absence of CPT | Potency, µM (highest dose often 46.2 µM), hits mostly inhibitors | 420,000 compounds, 15% hits | DT40 Tdp1-/- hTDP1 cells, no CPT, ATP luminescence, 48 h; note: nearly all actives have a fitted effect of over 55% in size
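Chicken DT40 Tdp1-/- cells stably complemented with human TDP1 were seeded at 400 cells/well with DMSO in place of 20 nM camptothecin. After compound pinning, cells grew at least 48 hr at 37 °C; viability read by CellTiter-Glo luminescence.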
TDP1 block = inhibitors of human tyrosyl-DNA phosphodiesterase TDP1; Q9NUW8; recombinant TDP1, AlphaScreen DNA substrate cleavage; Potency, µM (series often up to 130 µM), actives largely listed as inhibitors; 350,000 compounds, 0.28% hits; AID 485290; note: nearly all actives have a fitted effect of over 40% in size
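AlphaScreen read-out: signal falls as enzyme removes the 3' tyrosine-FITC from a 5'-biotinylated DNA oligo (15 nM, 5 min, RT). Enzyme was E. coli-made recombinant Tdp1 at 1 nM, exposed to compound for 15 min beforehand; beads 10 ug/ml, 10 min.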
TDP1 cell CPT = DT40-hTDP1 cell growth loss with CPT; Potency, µM (titrated, usually from 46.2 µM), usual class: inhibitors; 420,000 compounds, 12% hits; chicken DT40 Tdp1-/-;hTDP1 cells + 20 nM CPT, ATP luminescence, 48 h; AID 686979; note: nearly all actives have a fitted effect of over 55% in size
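Chicken DT40 Tdp1-/- cells complemented with human TDP1, 400 cells/well, exposed to compounds plus 20 nM camptothecin for at least 48 h at 37 C; viability read as ATP content by CellTiter-Glo luminescence.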
Large screens that a line does not name were inactive. Unless noted, calls come from the whole dose curve; as a rule, active = well fitted curve in the direction sought with a large enough effect; inconclusive = small, poorly fitted or top-dose-only effect, or another doubt; inactive = no such curve, though single readings can be large; an effect the other way counts as inactive or inconclusive.

COc1ccc(-c2cc(C(=O)NCc3ccc(C)cc3)c3cc(C(C)C)ccc3n2)cc1	TDP1 cell noCPT inconclusive (no result: uPA generation)
CCOc1ccccc1CNC(=O)c1cc(-c2ccc(OC)cc2)nc2ccc(C(C)C)cc12	TDP1 cell noCPT 16.4µM, TDP1 cell CPT 16.4µM (no result: uPA generation)
CCCCNC(=S)NNC(=O)c1cc(C2CC2)nc2ccccc12	TDP1 cell noCPT 3.66µM, TDP1 cell CPT inconclusive
CCNC(=S)NNC(=O)c1cc(-c2cccc(OC)c2)nc2ccccc12	TDP1 cell noCPT 16.4µM, TDP1 cell CPT inconclusive
COCCNC(=S)NNC(=O)c1cc(C2CC2)nc2ccccc12	none
CCNC(=S)NNC(=O)c1cc(-c2ccccc2C)nc2ccccc12	none (no result: uPA generation)
CCOC(=O)C1CCN(C(=O)CNC(=O)Cn2c(C)cc3ccccc3c2=O)CC1	none
NC(=O)c1ccc(NC(=O)COC(=O)CC2CC3CCC2C3)cc1 (stereo unspecified)	none (no result: miR-21 reporter)
Cc1ccccc1CN1CCc2cc([N+](=O)[O-])ccc21	TDP1 cell noCPT 18.4µM, TDP1 cell CPT inconclusive
CC(Sc1nc2ccccc2n1C)C(=O)NC(c1ccccc1)c1ccccc1 (stereo unspecified)	none
CC1(C(=O)O)CCC2(C)CCC3(C)C(=CC(=O)C4C5(C)CCC(=O)C(C)(C)C5CCC43C)C2C1 (stereo unspecified)	none (no result: uPA generation, miR-21 reporter, TDP1 block)
C[C@H](C[C@H](O)[C@H]1OC1(C)C)C1=C2C[C@H](O)C3[C@@]4(C)CCC(=O)C(C)(C)C4CC[C@]3(C)[C@@]2(C)CC1 (stereo partly specified)	uPA generation inconclusive, TDP1 cell noCPT 14.6µM, TDP1 cell CPT 7.31µM (no result: miR-21 reporter)
O=C(Cn1nnc(-c2cc(Cl)ccc2-n2cnnn2)n1)N1CCCc2ccccc21	TDP1 cell noCPT 20.6µM, TDP1 cell CPT inconclusive
Cc1ccc(-c2nnn(CC(=O)N3CCCc4ccccc43)n2)cc1	TDP1 cell CPT inconclusive
CC[C@H]1NC(=O)[C@@H](NC(=O)c2ncccc2O)[C@@H](C)OC(=O)[C@H](c2ccccc2)NC(=O)[C@@H]2CC(=O)CCN2C(=O)[C@H](Cc2ccccc2)N(C)C(=O)[C@@H]2CCCN2C1=O	none (no result: uPA generation, miR-21 reporter, TDP1 block)
Cc1cccc(NC(=O)CN2C(=O)S/C(=C\c3ccc(O)c([N+](=O)[O-])c3)C2=O)c1	none (no result: TDP1 block)
Cc1ccc(NC(=O)CN2C(=O)S/C(=C/c3ccc(O)c([N+](=O)[O-])c3)C2=O)cc1C	TDP1 block 79.4µM
O=C(CN1C(=O)S/C(=C\c2ccc(O)c([N+](=O)[O-])c2)C1=O)Nc1ccc(N2CCOCC2)cc1	TDP1 block 44.7µM
CCC(C)(C(=O)NC1CCCCC1)N(CC1CCCO1)C(=O)CNC(=O)c1ccccc1 (stereo unspecified)	none
Cc1cc(Nc2cccc(C(F)(F)F)c2)nc2ccc(NC(=O)c3cccc(Cl)c3)cc12	TDP1 cell noCPT 6.51µM, TDP1 cell CPT 13µM (no result: uPA generation)
CCOc1cc(/C=C(\CC(=O)O)c2nc3ccccc3s2)ccc1OCC(=O)Nc1cccc(C(F)(F)F)c1	TDP1 cell noCPT inconclusive, TDP1 cell CPT inconclusive (no result: miR-21 reporter, TDP1 block)
CNC(=O)Nc1ccc2nc(C)oc2c1	none (no result: TDP1 block)
Cc1cc(Nc2cccc(C(F)(F)F)c2)nc2ccc(NC(=O)c3cccnc3)cc12	miR-21 reporter inconclusive, TDP1 cell noCPT 2.31µM, TDP1 cell CPT 4.11µM (no result: uPA generation)
Cc1nc2ccc(NC(=O)c3cccc(C(F)(F)F)c3)cc2o1	TDP1 cell noCPT inconclusive, TDP1 cell CPT 23.1µM
O=C(Nc1cccc(C(F)(F)F)c1)c1cccnc1	none (no result: uPA generation)
CCOc1ccc(C(=O)Nc2ccc3nc(Nc4cccc(C(F)(F)F)c4)cc(C)c3c2)cc1OCC	TDP1 cell noCPT 5.17µM, TDP1 cell CPT 18.4µM (no result: uPA generation)
COc1ccc(CNC(=O)Cn2c(=O)n(CCC(=O)N3CCCCC3)c(=O)c3sccc32)cc1	TDP1 cell noCPT inconclusive
O=C1CCC(=O)N1c1ccc(S(=O)(=O)N2CCCC2)cc1	TDP1 cell CPT inconclusive
Cc1cc(C)c(-c2c(N)cc(Br)cc2Br)c(N)c1	TDP1 cell noCPT inconclusive, TDP1 cell CPT inconclusive (no result: miR-21 reporter, TDP1 block)
O=C(O)c1ccn2c(C(=O)c3ccc(Cl)cc3)c(-c3ccccc3)cc2c1	none
Cc1ccc(Sc2ccc(N3CCCC(C(=O)Nc4ccc(F)cc4F)C3)nn2)cc1 (stereo unspecified)	TDP1 cell noCPT 18.4µM, TDP1 cell CPT 14.6µM (no result: uPA generation)
CCOC(=O)c1ccc(NC(=O)C2CCCN(c3ccc(Sc4ccc(C)cc4)nn3)C2)cc1 (stereo unspecified)	TDP1 cell noCPT 8.2µM, TDP1 cell CPT inconclusive (no result: uPA generation)
CCOc1ccc(NC(=O)C2CCCN(c3ccc(Sc4ccc(C)cc4)nn3)C2)cc1 (stereo unspecified)	none (no result: uPA generation)
Cc1ccc(Sc2ccc(N3CCC(C(=O)Nc4ccc(Cl)cc4)CC3)nn2)cc1	TDP1 cell noCPT 18.4µM, TDP1 cell CPT 14.6µM (no result: uPA generation)
COc1ccc(S(=O)(=O)N2CCCCC2)cc1NC(=O)CSc1nccn1C	none
COc1ccc2c3c(n(C(=O)OC(C)(C)C)c2c1)C1CC=C(COC(C)=O)CN1CC3 (stereo unspecified)	TDP1 cell noCPT 16.4µM, TDP1 cell CPT 16.4µM (no result: uPA generation, miR-21 reporter, TDP1 block)
CCOc1ccc(CCNC(=O)c2cccc(S(=O)(=O)N3CCCC3)c2)cc1OCC	TDP1 cell noCPT inconclusive, TDP1 cell CPT inconclusive (no result: miR-21 reporter)
CCOc1ccc(CCNC(=O)c2cccc(S(=O)(=O)N3CC(C)OC(C)C3)c2)cc1OCC (stereo unspecified)	TDP1 cell noCPT 9.2µM, TDP1 cell CPT inconclusive (no result: miR-21 reporter)
O=C(NCCC1=CCCCC1)c1ccc(Cl)c(S(=O)(=O)N2CCCCC2)c1	TDP1 cell noCPT 23.1µM, TDP1 cell CPT 16.4µM
CC1CN(C(=O)c2cc(S(=O)(=O)N3CCCC3)c(Cl)cc2Cl)CC(C)O1 (stereo unspecified)	TDP1 cell noCPT 18.4µM, TDP1 cell CPT 13µM
O=C(NCCN1CCOCC1)c1ccc(Cl)c(S(=O)(=O)N2CCCCC2)c1	none
Cc1ccccc1CCNC(=O)c1ccc(Cl)c(S(=O)(=O)N2CC(C)OC(C)C2)c1 (stereo unspecified)	TDP1 cell noCPT inconclusive, TDP1 cell CPT 18.4µM (no result: miR-21 reporter)
CCN(CC(=O)Nc1ccc(NC(C)=O)cc1)C(=O)CSc1nnc(-c2ccco2)n1CC	none (no result: miR-21 reporter)
O=C(CN1CCOCC1)Nc1nc2ccc(Cl)cc2s1	none
CN(C)CCCNC(=O)c1ccc(Cl)c(S(=O)(=O)N2CCCCCC2)c1	TDP1 cell noCPT inconclusive, TDP1 cell CPT 10.3µM (no result: miR-21 reporter)
O=S(=O)(NCCc1ccccc1)c1cccc(S(=O)(=O)N2CCOCC2)c1	TDP1 cell noCPT inconclusive
CC(=O)N1CCN(S(=O)(=O)c2cccc(C(=O)NCCC3=CCCCC3)c2)CC1	TDP1 cell CPT 2.91µM (no result: miR-21 reporter)
CC1CN(S(=O)(=O)c2ccc(Cl)c(S(=O)(=O)N3CC(C)OC(C)C3)c2)CC(C)O1 (stereo unspecified)	TDP1 cell noCPT 14.6µM, TDP1 cell CPT inconclusive

Compound activity deposited in PubChem BioAssay by National Center for Advancing Translational Sciences (NCATS).
